This is one part of the list. Measured potencies and affinities stand elsewhere. Active and inactive are the calls of the source. No stated cut-off is given here; in the data, active means inhibition above about 50%; inactive means the rest.
biological target: Kappa-type opioid receptor (Homo sapiens) (UniProt P41145); assay: KOR antagonists, beta-arrestin recruitment, cell-based, luminescence, uHTS (AID 1778); conditions: antagonist mode, at 10 µM, active compounds read high

By UniProt entry, the sequences of proteins in these tests, tags left out. Where a name states a change or a piece, a line headed by the entry shows the natural chain unless it says otherwise.
UniProt P41145: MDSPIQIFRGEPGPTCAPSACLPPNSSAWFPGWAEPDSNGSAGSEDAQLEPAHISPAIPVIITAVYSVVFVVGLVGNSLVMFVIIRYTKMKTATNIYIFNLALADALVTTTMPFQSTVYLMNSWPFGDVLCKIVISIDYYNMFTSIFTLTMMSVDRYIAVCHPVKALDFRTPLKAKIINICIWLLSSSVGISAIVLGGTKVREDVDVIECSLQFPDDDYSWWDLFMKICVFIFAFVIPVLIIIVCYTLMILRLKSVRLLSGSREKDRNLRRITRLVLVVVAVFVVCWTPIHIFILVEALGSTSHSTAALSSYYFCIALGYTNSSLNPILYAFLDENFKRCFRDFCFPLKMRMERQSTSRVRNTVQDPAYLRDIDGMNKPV

Structure (SMILES) | inhibition
COc1ccc(CCNC(=O)Cn2c(-c3nonc3N)nc3ccccc32)cc1OC | inactive: -25.8%
O=C(Cn1c(SCC(=O)N2CCc3ccccc3C2)nc2ccccc21)NC1CCCC1 | inactive: 21.7%
Cn1c(=O)n(CC(=O)NCc2cccnc2)c2ccccc21 | inactive: -33.1%
CC1CCCCN1C(=O)CSc1nc2ccccc2n1CC(=O)N1CCc2ccccc21 (configuration not stated) | inactive: -10.4%
Cn1c(=O)c2c(nc(NCc3ccccc3)n2CC(=O)NCc2ccccc2)n(C)c1=O | inactive: 24%
O=C(Cn1cnc2ccccc21)Nc1cccc([N+](=O)[O-])c1 | inactive: -29.9%
Nc1cccc2ccc([As](=O)(O)O)cc12 | inactive: 18.5%
CN1C(=O)Cn2c1nc1ccccc12 | inactive: -13.3%
CC(C)C[C@H](NC(=O)N1CCn2c1nc1ccccc12)C(=O)N1CCCCC1 | inactive: -29.7%
CC(C)CSc1nc2ccccc2n1CC(N)=O | inactive: 7.8%
Nc1ncnc2c1ncn2C1OC(CO)C(O)C1N (configuration not stated) | inactive: 3.8%
Nc1nonc1-c1nc2ccccc2n1CC(=O)Nc1ccccc1 | inactive: 14.9%
CCC(=O)Nc1nnc(/C=C/c2ccc(OC)cc2)s1 | inactive: 23.9%
CC(=O)c1ccc(NC(=O)C2CC(=O)Nc3nc4ccccc4n32)cc1 (configuration not stated) | inactive: 14.9%
CCN(CC)CCn1c(=N)n(CCOc2ccccc2)c2ccccc21 | inactive: 2.9%
CCN(N=Nc1nonc1N)c1nonc1N | inactive: -0.4%
CC(C)(C)NC(=O)Cn1c(SCC(=O)NC2CCCC2)nc2ccccc21 | inactive: -0.6%
CCN(CC)CCNC(=O)Cn1c(-c2ccccn2)nc2ccccc21 | inactive: -25.2%
O=C(CSc1nc2ccccc2n1CC(=O)N1CCCCC1)N1CCCCC1 | inactive: -8.4%
Cc1ccc(C(=O)NC(C)c2nc3ccccc3n2CC(=O)Nc2c(C)cc(C)cc2C)cc1 (configuration not stated) | inactive: 28.4%
CC(O)c1nc2ccccc2n1CC(=O)N1CCN(c2ccccc2)CC1 (configuration not stated) | inactive: -23.5%
CCOCN(C(=O)Cn1c(C(C)O)nc2ccccc21)c1c(C)cccc1CC (configuration not stated) | inactive: 13.5%
Cc1ccc(N/C(=N/P(=O)(N2CCOCC2)N2CCOCC2)N2CCOCC2)cc1 | inactive: -6.3%
Nc1nonc1-c1nc2ccccc2n1CC(=O)N/N=C\c1ccc(-c2ccc(Cl)cc2)o1 | inactive: -26.1%

Structure (SMILES) | inhibition
CCC(C(=O)NC1CCCCC1)n1c(SCc2ccc(F)cc2)nc2ccncc21 (configuration not stated) | inactive: 26.2%
CN(C)C(=O)Cn1c(SCC(=O)Nc2ccc3c(c2)OCO3)nc2ccccc21 | inactive: -10.5%
NC(=O)c1cc([N+](=O)[O-])cc([N+](=O)[O-])c1N | inactive: -45.8%
Cc1ccc2c(c1)C1CN(C)CCC1N2C(=O)c1ccc(Cl)c(S(=O)(=O)N2CCOCC2)c1 (configuration not stated) | inactive: -16.8%
O=C(Nc1ccccc1)N1CCC(n2c(=O)[nH]c3ccccc32)CC1 | inactive: -17.5%
CC1CCCN(C(=O)Cn2c(-c3nonc3N)nc3ccccc32)C1 (configuration not stated) | inactive: -13.3%
COc1ccc(CNC(=O)CCCCCNC(=O)N2CCn3c2nc2ccccc23)cc1 | inactive: -8.9%
CCOc1cc(N2CCOCC2)c(OCC)cc1NC(=O)Cn1cnc2c(=O)n(C)c(=O)n(C)c21 | inactive: -24.7%
O=C(Cn1c(NCCO)nc2ccccc21)NCCc1ccccc1 | inactive: -18.7%
Cc1ccc(/C=N/NC(=O)Cn2cnc3ccccc32)cc1 | inactive: 9.7%
Clc1ccc(Cl)c(NC2=NCC(CBr)S2)c1 (configuration not stated) | inactive: 11.2%
CN1CCCC(OC(=O)C(c2ccccc2)c2ccccc2)C1 (configuration not stated) | inactive: -44.7%
CCC(C)(C)n1nnnc1CN1CCC(n2c(C)nc3cc(C(F)(F)F)ccc32)CC1 | inactive: -20.5%
Cc1nc2cc(F)ccc2n1C1CCN(Cc2nnnn2CCc2ccccc2)CC1 | inactive: -10%
CN1CCN(CCN2CCn3c2nc2ccccc23)CC1 | inactive: 10.2%
O=C1Cn2c(nc3ccccc32)N1c1cccc(C(F)(F)F)c1 | inactive: -10.9%
Cc1ccc(OP(=O)(Nc2nccs2)Oc2ccc(C)cc2)cc1 | inactive: 3.4%
COc1ccc(C(=O)CSc2nc3ccccc3n2CC(=O)NC(C)(C)C)cc1 | inactive: -29.6%
CCC(=O)N1c2ccc(S(=O)(=O)CCC(=O)N3CCn4c3nc3ccccc34)cc2CC1C (configuration not stated) | inactive: -23.1%
Oc1ccccc1CNc1ccccn1 | inactive: 2.4%
COCCN1CCn2c(nc3cc([N+](=O)[O-])ccc32)C1 | inactive: 30.2%
Nc1ncnc2c1ncn2CCN1CCCCC1 | inactive: 9.7%
Cc1c2non([O-])c-2c(C)[n+](=O)[n+]1[O-] | inactive: -13.8%
